Source: patent US11365195B2, “Atypical inhibitors of monoamine transporters; method of making; and use thereof” (THE UNITED STATES OF AMERICA, AS REPRESENTED BY THE …, priority 2017, dated 2022)

Sequences of proteins named here, by UniProt entry; tags and fusion partners are left off.
UniProt P23977, whole entry: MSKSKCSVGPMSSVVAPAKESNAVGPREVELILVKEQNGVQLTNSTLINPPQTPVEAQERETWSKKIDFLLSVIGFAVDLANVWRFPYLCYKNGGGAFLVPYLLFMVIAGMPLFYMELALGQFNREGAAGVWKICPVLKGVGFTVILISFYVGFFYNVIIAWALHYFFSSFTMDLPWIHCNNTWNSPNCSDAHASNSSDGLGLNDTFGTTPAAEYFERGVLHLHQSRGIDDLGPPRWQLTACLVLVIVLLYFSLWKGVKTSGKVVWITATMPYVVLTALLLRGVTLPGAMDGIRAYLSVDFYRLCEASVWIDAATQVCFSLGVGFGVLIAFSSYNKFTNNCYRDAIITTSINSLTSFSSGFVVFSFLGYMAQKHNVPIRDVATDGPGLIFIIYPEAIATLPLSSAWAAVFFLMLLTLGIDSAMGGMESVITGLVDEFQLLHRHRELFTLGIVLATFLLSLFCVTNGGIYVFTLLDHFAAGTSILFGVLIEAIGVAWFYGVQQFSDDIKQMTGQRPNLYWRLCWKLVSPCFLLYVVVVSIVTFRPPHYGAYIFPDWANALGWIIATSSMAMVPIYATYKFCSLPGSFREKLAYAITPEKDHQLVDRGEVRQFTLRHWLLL

Target: T1, DAT (Rattus norvegicus, UniProt P23977)
T1 construct: 100 μl of tissue preparation (1.5 mg of brain striatum membranes per well); tissue Bioreclamation IVT (Hicksville, N.Y.); host or cells: male Sprague-Dawley rat brain striatum membranes
Assay: DAT radioligand binding in rat striatum ([3H]-WIN35,428 competition)
Details: ratio of SERT Ki to DAT Ki

SMILES: Cl.O.O=C(c1cc2ccccc2o1)N1CCC(NCCSC(c2ccc(F)cc2)c2ccc(F)cc2)CC1 [JBG02-015, Benzofuran-2-yl(4-((2-((bis(4-fluorophenyl)methyl)thio)ethyl)amino)piperidin-1-yl)methanone]
- SERT/DAT: 0.84
